Target: CDK9/Cyclin K (Homo sapiens, UniProt P50750)
Assay: Inhibition of human recombinant full length His-tagged CDK9/cyclin K expressed in baculovirus expression system

Sequences of proteins named here, by UniProt entry; tags and fusion partners are left off.
UniProt P50750, whole entry: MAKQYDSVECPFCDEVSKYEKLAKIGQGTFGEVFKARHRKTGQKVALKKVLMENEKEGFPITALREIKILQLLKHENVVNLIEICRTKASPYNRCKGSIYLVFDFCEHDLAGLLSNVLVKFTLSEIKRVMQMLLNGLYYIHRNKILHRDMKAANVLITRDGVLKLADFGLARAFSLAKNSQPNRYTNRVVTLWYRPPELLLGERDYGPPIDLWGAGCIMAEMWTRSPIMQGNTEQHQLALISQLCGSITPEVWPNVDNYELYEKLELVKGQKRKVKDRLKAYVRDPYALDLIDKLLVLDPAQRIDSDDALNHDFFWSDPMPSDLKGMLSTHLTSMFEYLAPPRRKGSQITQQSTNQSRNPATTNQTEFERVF

IC50: 3 nM
SMILES: CN1C/C=C/CCOc2cccc(c2)-c2ccnc(n2)Nc2cccc(c2)C1 [ZOTIRACICLIB]
